The values below come from ChEMBL document CHEMBL1250552, “Quantitative structure-activity relationship studies of threo-methylphenidate analogs” (Bioorg Med Chem, 2010).

Amino acid sequences for entries named in this document (tags omitted).
UniProt P23977, whole entry: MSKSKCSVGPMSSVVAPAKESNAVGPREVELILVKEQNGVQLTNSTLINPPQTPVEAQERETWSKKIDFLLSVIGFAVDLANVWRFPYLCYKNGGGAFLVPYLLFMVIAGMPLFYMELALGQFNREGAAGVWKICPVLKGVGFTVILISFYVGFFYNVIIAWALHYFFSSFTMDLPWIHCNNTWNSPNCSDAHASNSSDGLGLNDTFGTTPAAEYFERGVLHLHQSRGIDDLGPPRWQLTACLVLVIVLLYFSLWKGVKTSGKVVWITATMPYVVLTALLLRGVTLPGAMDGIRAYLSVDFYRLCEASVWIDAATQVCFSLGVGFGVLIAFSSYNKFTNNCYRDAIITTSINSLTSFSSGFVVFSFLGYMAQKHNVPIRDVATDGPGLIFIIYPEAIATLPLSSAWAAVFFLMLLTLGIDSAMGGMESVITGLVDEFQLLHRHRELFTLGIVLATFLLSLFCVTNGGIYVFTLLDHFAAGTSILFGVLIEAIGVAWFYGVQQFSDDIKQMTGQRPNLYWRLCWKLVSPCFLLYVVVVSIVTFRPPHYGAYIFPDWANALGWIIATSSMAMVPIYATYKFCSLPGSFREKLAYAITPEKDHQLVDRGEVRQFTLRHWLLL

The test concerns the target Sodium-dependent dopamine transporter (Rattus norvegicus, UniProt P23977). The test can be described thus: Displacement of [3H]WIN 35428 from Sprague-Dawley rat striatal tissue after 2 hrs by liquid scintillation counting. Format: tissue-based, Striatum. Summed up:
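Male Sprague–Dawley rats anesthetized with CO₂ gas. Crude synaptosomal P₂ fraction made from striatum and homogenized in 25 mM sodium phosphate, pH 7.7, at 0 °C. Rapid filtration through glass microfiber filters, then scintillation counting.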
Background: Displacement assays read how much labelled ligand stays bound in the presence of the test substance.

For `COC(=O)[C@H](c1ccc(C(C)(C)C)cc1)[C@H]1CCCCN1`, the IC50 (commonly the concentration that gives 50% inhibition) amounted to 13.5 µM.
